# Measurements: the CheMixHub ionic liquid set
# ± gives the uncertainty stated by the source.
# Experiment: xn = mol fraction of the nth substance listed
# Conditions: 100 kPa
compound,measurement,setting,value
CC(=O)[O-].CCC[N+](CCC)(CCC)CCC + CCCCCCCCCCCC[N+](C)(C)C.[Br-] + O,viscosity,"293.15 K, x2 = 5.418e-05, x1 = 0.0001802",1.025 ± 0.029 mPa·s
same,viscosity,"293.15 K, x2 = 0.0001084, x1 = 0.0001801",1.027 ± 0.029 mPa·s
same,viscosity,"293.15 K, x2 = 0.0001625, x1 = 0.0001801",1.031 ± 0.029 mPa·s
same,viscosity,"293.15 K, x2 = 0.0002167, x1 = 0.0001801",1.032 ± 0.029 mPa·s
same,viscosity,"293.15 K, x2 = 0.0002708, x1 = 0.0001801",1.034 ± 0.029 mPa·s
same,viscosity,"293.15 K, x2 = 0.000325, x1 = 0.0001801",1.034 ± 0.029 mPa·s
same,viscosity,"293.15 K, x2 = 0.0003791, x1 = 0.0001801",1.035 ± 0.029 mPa·s
same,viscosity,"293.15 K, x2 = 0.0004333, x1 = 0.0001801",1.036 ± 0.029 mPa·s
same,viscosity,"293.15 K, x2 = 0.0004874, x1 = 0.0001801",1.036 ± 0.029 mPa·s
same,viscosity,"293.15 K, x2 = 0.0005415, x1 = 0.0001801",1.036 ± 0.029 mPa·s
same,viscosity,"298.15 K, x2 = 5.418e-05, x1 = 0.0001802",0.916 ± 0.029 mPa·s
same,viscosity,"298.15 K, x2 = 0.0001084, x1 = 0.0001801",0.919 ± 0.029 mPa·s
same,viscosity,"298.15 K, x2 = 0.0001625, x1 = 0.0001801",0.92 ± 0.029 mPa·s
same,viscosity,"298.15 K, x2 = 0.0002167, x1 = 0.0001801",0.92 ± 0.029 mPa·s
same,viscosity,"298.15 K, x2 = 0.0002708, x1 = 0.0001801",0.924 ± 0.029 mPa·s
same,viscosity,"298.15 K, x2 = 0.000325, x1 = 0.0001801",0.927 ± 0.029 mPa·s
same,viscosity,"298.15 K, x2 = 0.0003791, x1 = 0.0001801",0.928 ± 0.029 mPa·s
same,viscosity,"298.15 K, x2 = 0.0004333, x1 = 0.0001801",0.929 ± 0.029 mPa·s
same,viscosity,"298.15 K, x2 = 0.0004874, x1 = 0.0001801",0.93 ± 0.029 mPa·s
same,viscosity,"298.15 K, x2 = 0.0005415, x1 = 0.0001801",0.93 ± 0.029 mPa·s
same,viscosity,"303.15 K, x2 = 5.418e-05, x1 = 0.0001802",0.781 ± 0.028 mPa·s
same,viscosity,"303.15 K, x2 = 0.0001084, x1 = 0.0001801",0.782 ± 0.028 mPa·s
same,viscosity,"303.15 K, x2 = 0.0001625, x1 = 0.0001801",0.784 ± 0.028 mPa·s
same,viscosity,"303.15 K, x2 = 0.0002167, x1 = 0.0001801",0.787 ± 0.028 mPa·s
same,viscosity,"303.15 K, x2 = 0.0002708, x1 = 0.0001801",0.789 ± 0.028 mPa·s
same,viscosity,"303.15 K, x2 = 0.000325, x1 = 0.0001801",0.789 ± 0.028 mPa·s
same,viscosity,"303.15 K, x2 = 0.0003791, x1 = 0.0001801",0.791 ± 0.028 mPa·s
same,viscosity,"303.15 K, x2 = 0.0004333, x1 = 0.0001801",0.792 ± 0.028 mPa·s
same,viscosity,"303.15 K, x2 = 0.0004874, x1 = 0.0001801",0.793 ± 0.028 mPa·s
same,viscosity,"303.15 K, x2 = 0.0005415, x1 = 0.0001801",0.794 ± 0.028 mPa·s
same,viscosity,"308.15 K, x2 = 5.418e-05, x1 = 0.0001802",0.702 ± 0.028 mPa·s
same,viscosity,"308.15 K, x2 = 0.0001084, x1 = 0.0001801",0.703 ± 0.028 mPa·s
same,viscosity,"308.15 K, x2 = 0.0001625, x1 = 0.0001801",0.704 ± 0.028 mPa·s
same,viscosity,"308.15 K, x2 = 0.0002167, x1 = 0.0001801",0.705 ± 0.028 mPa·s
same,viscosity,"308.15 K, x2 = 0.0002708, x1 = 0.0001801",0.707 ± 0.028 mPa·s
same,viscosity,"308.15 K, x2 = 0.000325, x1 = 0.0001801",0.707 ± 0.028 mPa·s
same,viscosity,"308.15 K, x2 = 0.0003791, x1 = 0.0001801",0.709 ± 0.028 mPa·s
same,viscosity,"308.15 K, x2 = 0.0004333, x1 = 0.0001801",0.71 ± 0.028 mPa·s
same,viscosity,"308.15 K, x2 = 0.0004874, x1 = 0.0001801",0.711 ± 0.028 mPa·s
same,viscosity,"308.15 K, x2 = 0.0005415, x1 = 0.0001801",0.711 ± 0.028 mPa·s
same,viscosity,"313.15 K, x2 = 5.418e-05, x1 = 0.0001802",0.646 ± 0.027 mPa·s
same,viscosity,"313.15 K, x2 = 0.0001084, x1 = 0.0001801",0.647 ± 0.027 mPa·s
same,viscosity,"313.15 K, x2 = 0.0001625, x1 = 0.0001801",0.648 ± 0.027 mPa·s
same,viscosity,"313.15 K, x2 = 0.0002167, x1 = 0.0001801",0.649 ± 0.027 mPa·s
same,viscosity,"313.15 K, x2 = 0.0002708, x1 = 0.0001801",0.65 ± 0.027 mPa·s
same,viscosity,"313.15 K, x2 = 0.000325, x1 = 0.0001801",0.651 ± 0.027 mPa·s
same,viscosity,"313.15 K, x2 = 0.0003791, x1 = 0.0001801",0.652 ± 0.027 mPa·s
same,viscosity,"313.15 K, x2 = 0.0004333, x1 = 0.0001801",0.653 ± 0.027 mPa·s
same,viscosity,"313.15 K, x2 = 0.0004874, x1 = 0.0001801",0.654 ± 0.027 mPa·s
same,viscosity,"313.15 K, x2 = 0.0005415, x1 = 0.0001801",0.654 ± 0.027 mPa·s
same,viscosity,"318.15 K, x2 = 5.418e-05, x1 = 0.0001802",0.589 ± 0.027 mPa·s
same,viscosity,"318.15 K, x2 = 0.0001084, x1 = 0.0001801",0.592 ± 0.027 mPa·s
same,viscosity,"318.15 K, x2 = 0.0001625, x1 = 0.0001801",0.592 ± 0.027 mPa·s
same,viscosity,"318.15 K, x2 = 0.0002167, x1 = 0.0001801",0.594 ± 0.027 mPa·s
same,viscosity,"318.15 K, x2 = 0.0002708, x1 = 0.0001801",0.595 ± 0.027 mPa·s
same,viscosity,"318.15 K, x2 = 0.000325, x1 = 0.0001801",0.595 ± 0.027 mPa·s
same,viscosity,"318.15 K, x2 = 0.0003791, x1 = 0.0001801",0.597 ± 0.027 mPa·s
same,viscosity,"318.15 K, x2 = 0.0004333, x1 = 0.0001801",0.598 ± 0.027 mPa·s
same,viscosity,"318.15 K, x2 = 0.0004874, x1 = 0.0001801",0.598 ± 0.027 mPa·s
same,viscosity,"318.15 K, x2 = 0.0005415, x1 = 0.0001801",0.599 ± 0.027 mPa·s
